Exposed polarity of cyclic peptides

Values of Boehm et al. 2017, doi:10.1021/acs.jmedchem.7b01028, as listed in CycPeptMPDB.

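Conditions beyond the assay type are not listed; see the original paper. Other peptides of the study may be missing here.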

EPSA is the experimental polar surface area, a chromatographic measure of exposed polarity.

| compound | EPSA (Å2) |
|---|---|
| CC(C)(C)C[C@@H]1NC(=O)[C@@H](Cc2ccccc2)NC(=O)[C@H](Cc2ccccc2)NC(=O)CN(CCCc2ccc(F)cc2F)C(=O)[C@H]2CCCN2C(=O)[C@H](Cc2cscn2)NC1=O | 74 |
| CC(C)(C)C[C@@H]1NC(=O)[C@@H](Cc2ccccc2)NC(=O)[C@H](COCc2ccccc2)NC(=O)CN(CCCc2ccc(F)cc2F)C(=O)[C@H]2CCCN2C(=O)[C@H](Cc2cscn2)NC1=O | 77 |
| CC(C)(C)C[C@@H]1NC(=O)[C@@H](Cc2ccccc2)NC(=O)[C@H](Cc2ccccc2)NC(=O)CN(CCCc2ccccc2)C(=O)[C@H]2CCCN2C(=O)[C@H](Cc2cscn2)NC1=O | 79 |
| CC(C)(C)C[C@@H]1NC(=O)[C@@H](Cc2ccccc2)NC(=O)[C@H](Cc2ccc(F)cc2)NC(=O)CN(CCCc2ccc(F)cc2F)C(=O)[C@H]2CCCN2C(=O)[C@H](Cc2cscn2)NC1=O | 74 |
| CN1C(=O)[C@H](CCCc2ccccc2)NC(=O)CN(CCCc2ccccc2)C(=O)[C@H]2CCCN2C(=O)[C@H](Cc2cccnc2)NC(=O)[C@H](Cc2cscn2)N(C)C(=O)[C@H]1Cc1ccccc1 | 83 |
| CC(C)(C)C[C@@H]1NC(=O)[C@@H](Cc2ccccc2)NC(=O)[C@H](CCCc2ccccc2)NC(=O)CN(CCCc2ccccc2)C(=O)[C@H]2CCCN2C(=O)[C@H](Cc2cscn2)NC1=O | 80 |
| O=C1CN(CCCc2ccccc2)C(=O)[C@H]2CCCN2C(=O)[C@H](Cc2cccnc2)NC(=O)[C@H](Cc2c[nH]c3ccccc23)NC(=O)[C@@H](Cc2ccccc2)NC(=O)[C@H](CCCc2ccccc2)N1 | 104 |
| O=C1CN(CCCc2ccccc2)C(=O)[C@H]2CCCN2C(=O)[C@H](Cc2cccnc2)NC(=O)[C@H](CCCc2ccccc2)NC(=O)[C@@H](Cc2ccccc2)NC(=O)[C@H](CCCc2ccccc2)N1 | 90 |
| CC(C)(C)C[C@@H]1NC(=O)[C@@H](Cc2ccccc2)NC(=O)[C@H](CCCc2ccccc2)NC(=O)CN(CCCc2ccccc2)C(=O)[C@H]2CCCN2C(=O)[C@H](Cc2cccnc2)NC1=O | 79 |
| O=C1CN(CCCc2ccccc2)C(=O)[C@H]2CCCN2C(=O)[C@H](Cc2cccnc2)NC(=O)[C@H](CCc2ccccc2)NC(=O)[C@@H](Cc2ccccc2)NC(=O)[C@H](CCCc2ccccc2)N1 | 89 |
| CC(C)(C)C[C@@H]1NC(=O)CN(CCCc2ccc(F)cc2F)C(=O)[C@H]2CCCN2C(=O)[C@H](Cc2cscn2)NC(=O)[C@H](CC(C)(C)C)NC(=O)[C@@H](Cc2ccccc2)NC1=O | 70 |
| CN1C(=O)[C@@H](Cc2ccccc2)NC(=O)[C@H](CCCc2ccccc2)NC(=O)CN(CCCc2ccccc2)C(=O)[C@H]2CCCN2C(=O)[C@H](Cc2cccnc2)NC(=O)[C@@H]1Cc1cscn1 | 86 |
| O=C1CN(CCCc2ccccc2)C(=O)[C@H]2CCCN2C(=O)[C@H](Cc2cccnc2)NC(=O)[C@H](Cc2cscn2)NC(=O)[C@@H](Cc2ccccc2)NC(=O)[C@H](CCCc2ccccc2)N1 | 89 |
| CC(C)(C)C[C@@H]1NC(=O)[C@@H](Cc2ccccc2)NC(=O)[C@H](CC2CCCCC2)NC(=O)CN(CCCc2ccc(F)cc2F)C(=O)[C@H]2CCCN2C(=O)[C@H](Cc2cscn2)NC1=O | 74 |

Extract of 2 entries:

| compound | EPSA (Å2) |
|---|---|
| O=C1CN(CCCc2ccccc2)C(=O)[C@H]2CCCN2C(=O)[C@H](Cc2cccnc2)NC(=O)[C@H](CCCc2ccccc2)NC(=O)[C@@H](Cc2ccccc2)NC(=O)[C@H](CCCc2ccccc2)N1 | 90 |
| CC(C)(C)C[C@@H]1NC(=O)CN(CCCc2ccc(F)cc2F)C(=O)[C@H]2CCCN2C(=O)[C@H](Cc2cscn2)NC(=O)[C@H](CC(C)(C)C)NC(=O)[C@@H](Cc2ccccc2)NC1=O | 70 |